Conditions: high-dose group; normalized after discontinuation
Description: Subjects were evaluated for adverse events daily while in hospital and at each subsequent clinical evaluation. All serious adverse events (Table 4) were reviewed promptly by a safety monitoring board composed of clinicians and clinician researchers not otherwise involved in this study. A summary of all adverse events was reviewed every 6 months.
The model assumed that any change associated with treatment group was constant over these time points. An interaction term between treatment and injury type was included to allow for the possibility that changes associated with treatment group differed among motor-complete and motor-incomplete injured subjects. ASIA sensory scores were similarly evaluated. ASIA motor, pin-prick and light scores were evaluated by the Shapiro-Wilk normality test and were consistent with a normal distribution. Functional recovery data were compared over all data points. Adverse events were categorized by system and mean numbers of events per patient were compared within each system by ANOVA. All statistical tests were two-tailed (a=0.05). […] The Student t-test was then used to estimate the between group difference that this study was powered to detect with power=0.8 and a=0.05.

With `CN(C)c1ccc(O)c2c1C[C@H]1C[C@H]3[C@H](N(C)C)C(O)=C(C(N)=O)C(=O)[C@@]3(O)C(O)=C1C2=O` [minocycline, (2E,4S,4aR,5aS,12aR)-2-(amino-hydroxy-methylidene)-4,7-bis(dimethylamino)-10,11,12a-trihydroxy-4-a,5,5a,6-tetrahydro-4H-tetracene-1,3,12-trione] the “subjects with elevated liver enzymes (only adverse event likely related to minocycline)” value was “one”.
